From published antibiotic growth screens (doi:10.1038/s41589-023-01349-8) come the findings set out here.

The other results are listed elsewhere or left out.

The test system of this assay is A. baumannii ATCC 17978. Nature of the assay: relative growth (fraction of control); higher = less inhibition. The conditions noted are these: 50 µM.
`COC(=O)[C@H]1C2C(=O)N(C3CC3)C[C@]23C=C[C@H]1O3` (stereo partly drawn) returned a relative growth of 0.958.
In the case of `COc1ccccc1CN1C(=O)c2ccccc2[C@@]2(Cc3ccccc3N(CCCN(C)C)C2=O)[C@@H]1c1ccc(CO)cc1` it was 1.04; in that of `C=C(C)[C@@H]1CC[C@]2(C)CC[C@]3(C)[C@@H](CCC4[C@@]5(C)CC[C@H](OC(C)=O)C(C)(C)C5CC[C@]43C)C12` (stereo partly drawn), 0.909; in that of `NC(C(=O)O)C(O)C(=O)O` (stereo not drawn) [d,l-threo-3-HYDROXYASPARTIC ACID], 1.08.
`O=C(Cc1ccncc1)NCC[C@@H]1CC[C@@H](NC(=O)C2CCOCC2)[C@H](CO)O1`: the relative growth worked out at 1.05.
In the case of `Cn1c(=O)n2n(c1=O)[C@H](C1CC1)C=C1CN3[C@@H]([C@H](Cc4ccccc4)OC(=O)[C@@H]3Cc3ccc(N=[N+]=[N-])cc3)[C@@H]12`, the relative growth was 1.08.
Turning to `C[C@H]1CN([C@@H](C)CO)S(=O)(=O)c2ccc(C#CC3(O)CCCC3)cc2O[C@H]1CN(C)C(=O)Cc1cccnc1`, the relative growth is 1.07.
The value for `O=C(N/N=C/[C@H](O)[C@@H](O)[C@H](O)CO)c1ccccn1` was 1.02.
Compound `COc1cccc(NC(=O)N2C[C@H](O)COC[C@H]3O[C@@H](CC(=O)NCCCN4CCOCC4)CC[C@@H]32)c1` gave a relative growth of 1.11.
The value for `COCC#Cc1ccc2c(c1)O[C@@H](CN(C)S(=O)(=O)c1ccc(F)cc1)[C@@H](C)CN([C@@H](C)CO)S2(=O)=O` was 0.937.
For `Cc1ncc(CSSCc2cnc(C)c(O)c2CO)c(CO)c1O`, the relative growth worked out at 1.11.
`O=c1nc[nH]c2c1ncn2[C@H]1CC[C@@H](CO)O1` gave a relative growth of 1.15.
Consider `CN(C)CC(=O)N[C@@H]1CC[C@@H](CCn2cc(CN(C)C)nn2)O[C@H]1CO`, for which the relative growth came to 1.08.
In the case of `CC(C)(C)OC(=O)CC[C@]1(C(=O)NC[C@@H](O)CO)COC(c2ccc(OCCCO)cc2)=N1` it was 0.874; in that of `CC(=O)Oc1cccc2c1C(=O)c1c(OC(C)=O)cc(C(=O)O)cc1C2=O`, 0.93; in that of `CC(=O)NCCCC[C@@H]1NC(=O)[C@H]2C[C@@H](C(=O)NCCCC[N+](C)(C)C)[C@@H](c3ccc(O)cc3)N2C1=O`, 1.04.
In the case of `CN(C)c1ccc([C@@H](CN)N2CCc3ccccc3C2)cc1`, the relative growth was determined as 0.981.
`CCCNC(=O)N[C@H]1C=C[C@@H](CC(=O)N2CCN(C)CC2)O[C@H]1CO` registered a relative growth of 0.942.
As to `COc1ccc([Si](C)(C)[C@@H]2[C@@H](CCO)O[C@]3(C(=O)N(Cc4ccc(N5C(=O)c6cccc7cccc5c67)cc4)c4ccccc43)[C@H]2C)cc1`, the relative growth worked out at 1.41.
In the case of `O=C(C[C@H]1CC[C@H]2[C@@H](COC[C@@H](O)CN2C(=O)c2ccccc2)O1)N1CCOCC1` it was 1.05; in that of `O=C(C[C@@H]1C=C[C@@H](NS(=O)(=O)c2ccccc2)[C@@H](CO)O1)NCc1ccncn1`, 1.15.
In the case of `NCCS(=O)(=O)O` it was 1.02.
The value for `C[C@@H]1CN([C@@H](C)CO)S(=O)(=O)c2ccc(C#CC3(O)CCCC3)cc2O[C@H]1CN(C)C(=O)c1ccncc1` was 0.851; that for `CCn1cc(C(=O)O)c(=O)c2cnc(N3CCNCC3)nc21` was 0.953; that for `COc1nc(C)nc(Cl)c1NC1=NCCN1` was 1.17.
The compound `CCn1ncc(Br)c1CN` registered a relative growth of 0.892.
The compound `C[C@H](CO)N1C[C@H](C)[C@@H](CN(C)S(=O)(=O)c2cccc(F)c2)Oc2ncc(C#CC3(O)CCCC3)cc2C1=O` returned a relative growth of 1.
`COCC(=O)N1C[C@@H](C)[C@H](OC)CN(C)C(=O)c2ccc(NC(=O)Nc3cccc(F)c3)cc2OC[C@@H]1C` showed a relative growth of 1.09.
In the case of `O=C(/C=C/c1ccccc1)C1CC1` it was 0.754; in that of `CO[C@@H](CN(C)C(=O)c1ccc2c(c1)OCO2)[C@H](C)CN([C@@H](C)CO)S(=O)(=O)c1ccc(F)cc1`, 1.12.
The value for `O=C(C[C@@H]1CC[C@H]2[C@@H](COC[C@@H](O)CN2Cc2ccccc2F)O1)N[C@@H]1CCN(Cc2ccccc2)C1` was 1.04; that for `O=C(C[C@H]1C[C@H]2c3cc(NC(=O)c4ccc5c(c4)OCO5)ccc3O[C@H]2[C@H](CO)O1)NCc1cccnc1` was 1.11; that for `O=C(C[C@H]1C=C[C@@H](NC(=O)Cc2ccccn2)[C@@H](CO)O1)NCCc1ccncc1` was 0.861.
In the case of `COc1ccc(-c2cc(=O)c3c(O)cc(O)cc3o2)cc1` it was 1.22.
`O=C(C[C@H]1CC[C@H]2[C@@H](COC[C@@H](O)CN2S(=O)(=O)c2ccc(F)cc2)O1)N[C@H]1CCN(Cc2ccccc2)C1` yielded a relative growth of 1.14.
As for `Cc1ccc(S(=O)(=O)NC(=O)NN2CC3CCCC3C2)cc1` (stereo not drawn), the relative growth was 0.969.
The value for `CO[C@H]1O[C@H](COC(=O)NCCCCCC(=O)NO)[C@@H](OC(=O)c2ccccc2)[C@H](OC(=O)Nc2ccccc2-c2ccccc2)[C@@H]1OC(=O)Nc1ccccc1-c1ccccc1` was 1; that for `O=c1c(O)cccc2cc(O)c(O)c(O)c12` was 1.01; that for `O=C1NC(=O)[C@H](Cc2ccccc2)N1` was 1.19.
The value for `O=C(C[C@@H]1C=C[C@H](NC(=O)CN2CCOCC2)[C@@H](CO)O1)NC1CCC1` was 0.972; that for `Cc1ccc2ncc(-c3ccc4cc(C)ccc4n3)cc2c1` was 1.21; that for `O=c1c(O)c(-c2cc(O)c(O)c(O)c2)oc2cc(O)cc(O)c12` was 0.967.
`O=C(C[C@H]1C[C@@H]2c3cc(NS(=O)(=O)c4ccccc4)ccc3O[C@@H]2[C@@H](CO)O1)NC1CCCCC1` registered a relative growth of 1.06.
`Cn1cc(S(=O)(=O)N2CCN(c3ccccc3F)CC2)c(=O)n(C)c1=O` had a relative growth of 1.1.
In turn, `O=C(C[C@@H]1CC[C@H](NC(=O)CN2CCOCC2)[C@@H](CO)O1)NCCc1ccncc1` displayed a relative growth of 1.
On to `C[C@@H]1CN([C@H](C)CO)C(=O)c2cc(C#CC3(O)CCCC3)cnc2O[C@@H]1CN(C)C(=O)Cc1ccccc1`, for which the relative growth turned out to be 1.
Compound `C=CCOC(=O)[C@H]1[C@@H]2C(=O)O[C@@H](c3ccccc3)[C@@H](c3ccccc3)N2[C@@H](c2ccc(OCCOC(=O)[C@@H]3C[C@@H]4C(=O)N[C@@H](CC(C)C)C(=O)N4[C@@H]3c3cccc(OCCO)c3)cc2)[C@]12C(=O)Nc1ccc(I)cc12` showed a relative growth of 1.17.
In the case of `COc1ccc([Si](C)(C)[C@H]2[C@H](CC(=O)N3Cc4ccccc4C[C@H]3CO)O[C@@]3(C(=O)N(Cc4ccc(N5CCOC5=O)cc4)c4ccccc43)[C@@H]2C)cc1` it was 1.03; in that of `COc1c2ccccc2nc2occc12`, 1.01; in that of `C#C[C@]1(O)CCC2C3CCC4=CCCCC4C3CC[C@@]21C` (stereo partly drawn), 1.22.
The value for `O=C1N(CCS(=O)(=O)c2ccccc2)Cc2ccccc2C[C@@]12COC(c1ccc(OCCCO)cc1)=N2` was 0.88.
With `COc1ccc(-c2oc3c(CC=C(C)C)c(O[C@@H]4O[C@H](CO)[C@@H](O)[C@H](O)[C@H]4O)cc(O)c3c(=O)c2O[C@@H]2O[C@@H](C)[C@H](O)[C@@H](O)[C@H]2O)cc1`, the relative growth was found to be 1.06.
The value for `CCn1cc(C(=O)O)c(=O)c2ccc(C)nc21` was 0.869; that for `O=C(O)CNC(=O)c1[nH]nc2ccccc12` was 1.18.
Turning to `O=C(O)CNc1ncccc1O`, the relative growth worked out at 1.16.
Regarding `O=C(C[C@@H]1C=C[C@H](NC(=O)c2cccc(F)c2)[C@@H](CO)O1)NCCN1CCCC1`, the relative growth is 0.996.
Regarding `COc1ccc(S(=O)(=O)N2C[C@H](O)COC[C@@H]3O[C@H](CC(=O)NCCN4CCCCC4)CC[C@H]32)cc1`, the relative growth is 0.838.
The value for `COc1ccc2cc(CCC(C)=O)ccc2c1` was 0.946; that for `COCCOC(=O)N1C(=O)[C@@]2(c3cc(C#CCNC(N)=O)ccc31)[C@H](c1ccc(O)cc1)N1[C@H](c3ccccc3)[C@H](c3ccccc3)OC(=O)[C@H]1[C@@H]2C(=O)N1CCc2cc(OC)c(OC)cc2C1` was 0.974.
For the compound `CC(CCC(=O)O)[C@H]1CCC2C3CC[C@@H]4C[C@H](O)CC[C@]4(C)C3C[C@H](O)[C@@]21C` (stereo partly drawn), the relative growth came to 1.04.
Compound `O=C(CCCN1CC=C(n2c(=O)[nH]c3ccccc32)CC1)c1ccc(F)cc1` yielded a relative growth of 0.946.
The value for `O=C(C[C@H]1CC[C@H]2[C@@H](COC[C@H](O)CN2C(=O)c2ccncc2)O1)NCc1ccc(-c2ccccc2)cc1` was 0.997; that for `COc1ccccc1CNC(=O)C[C@@H]1C[C@H]2c3cc(NS(=O)(=O)c4ccc(F)cc4)ccc3O[C@H]2[C@H](CO)O1` was 0.919.
`COc1ccccc1S(=O)(=O)N[C@@H]1C=C[C@@H](CC(=O)N2CCN(C)CC2)O[C@H]1CO` yielded a relative growth of 1.02.
For the compound `CC[C@@H](CO)NC(=O)c1ccc(N)cc1`, the relative growth turned out to be 1.01.
As for `Cc1c2oc3c(C)ccc(C(=O)OC(C)C4NC(=O)C(C(C)C)N(C)C(=O)CN(C)C(=O)C5CCCN5C(=O)C(C(C)C)NC4=O)c3nc-2c(C(=O)OC(C)C2NC(=O)C(C(C)C)N(C)C(=O)CN(C)C(=O)C3CCCN3C(=O)C(C(C)C)NC2=O)c(N)c1=O` (stereo not drawn), the relative growth is 0.172.
`COc1ccc(NC(=O)N(C)C[C@@H]2Oc3cc(C#CCN(C)C)ccc3S(=O)(=O)N([C@@H](C)CO)C[C@@H]2C)cc1` showed a relative growth of 0.978.
In the case of `O=C(C[C@H]1C=C[C@@H](NC(=O)CN2CCOCC2)[C@@H](CO)O1)NC1CCC1` it was 1.03; in that of `CCC(=O)O`, 1.07.
In the case of `CCOC(=O)c1nonc1N` it was 0.978.
The value for `COCCOC(=O)N1C(=O)[C@@]2(c3cc(C#CC4(O)CCCCCC4)ccc31)[C@H](c1ccc(OCCO)cc1)N1[C@H](c3ccccc3)[C@H](c3ccccc3)OC(=O)[C@H]1[C@@H]2C(=O)N1CCCCCCC1` was 1.05.
For `Oc1c(I)cc(I)c2cccnc12`, the relative growth was 1.14.
In the case of `COC(=O)[C@@H]1CC2=CC(=O)CC[C@]2(C)[C@@]23OC2C[C@@]2(C)C(CCC24CCC(=O)O4)[C@H]13` (stereo partly drawn) it was 0.946; in that of `C[N+]1(C)C2CC[C@H]1C[C@@H](OC(=O)C(O)c1ccccc1)C2.[Br-]` (stereo partly drawn), 0.951; in that of `CC(C)(C)OC(=O)NC(=NCCCn1cc(-c2cccc(/C=C/C(=O)NO)c2)nn1)NC(=O)OC(C)(C)C`, 1.33.
Consider `CC(=O)Nc1ccc(S(=O)(=O)CCO)cc1`, for which the relative growth came out at 1.07.
In turn, `C[C@@H]1CN(C(=N)N)C[C@H](C)O1` returned a relative growth of 0.87.
Turning to `COc1ccc(C#Cc2ccc3c(c2)[C@]2(C(=O)N3)[C@H](c3ccc(O)cc3)N3[C@H](c4ccccc4)[C@H](c4ccccc4)OC(=O)[C@H]3[C@@H]2C(=O)N2CCCCCCC2)cc1`, the relative growth is 0.973.
